This assay concerns the target Bromodomain-containing protein 4 (Homo sapiens, UniProt O60885). As to the kind of experiment: Inhibition of recombinant human N-terminal His6-tagged BRD4 bromodomain 1 expressed in Escherichia coli using biotinylated histone peptide as substrate after 60 mins by TR-FRET assay.

This passage reports K results from ChEMBL document CHEMBL4043066, “Drug Discovery Targeting Bromodomain-Containing Protein 4” (J Med Chem, 2017).

For the compound `Cc1noc(C)c1-c1cc(-c2c(C3CC3)n[nH]c2C2CC2)c2[nH]c(=O)[nH]c2c1`, the K was 3 nM.
For `Cc1noc(C)c1-c1cc(C(O)(c2cnccn2)c2c(F)cccc2F)c2[nH]c(=O)[nH]c2c1` (configuration not stated) the value was 2.7 nM.
